Yeast mating assay 1: variants of the scFv Ab-14

The measurements come from Engelhart et al. 2022 (doi:10.1038/s41597-022-01779-4) through the FLAb antibody collection.

Target peptide (SARS-CoV-2 spike, HR2 region): PDVDLGDISGINAS

Parent: Ab-14, a human scFv built as VH, the linker GGGGSGGGGSGGGGS, VL. Only the CDRs of the heavy chain vary.
VH: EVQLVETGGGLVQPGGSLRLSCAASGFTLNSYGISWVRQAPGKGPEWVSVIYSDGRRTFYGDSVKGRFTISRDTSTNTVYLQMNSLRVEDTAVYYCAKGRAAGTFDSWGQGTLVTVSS
VL: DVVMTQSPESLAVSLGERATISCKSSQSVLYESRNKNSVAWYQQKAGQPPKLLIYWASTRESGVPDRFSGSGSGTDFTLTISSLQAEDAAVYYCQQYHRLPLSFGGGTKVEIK

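The starting antibody came from a phage panning campaign against this peptide. The library (AAYL49) carries one to three amino acid substitutions per variant, with no insertions or deletions. AlphaSeq pools MATa yeast showing the antibodies with MATalpha yeast showing the peptide. Mating (16 h, 30 °C) was followed by selection of diploids and sequencing of their barcodes. Read counts were normalised to the haploid input and turned into Kd by a linear fit to BCL2-family pairs of known affinity, for each replicate. Mating was done three times.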

Substitutions are numbered in sequence along the VH above, starting at 1 (not Kabat).
Scale: log10 of Kd in nM, estimated from mating counts; low values are strong binders.
"nd" marks a missing value. The strain was present, yet no cells mated with the target were sequenced in that replicate, which points to weak or no binding.
Background: pairings of library AAYL49 with three empty control strains gave a value in 15% of cases (median 4.06, 5th percentile 2.83). Values in that range, when seen in few replicates, are hard to tell from nonspecific mating. For each scFv, signals with the empty controls are counted beside the result.

For T58D+V64R+T104F, the assay gave nd, 4.35, 4.83 (controls 1 of 9).
For G26W+I34G+S53T, the assay gave nd, nd, 5.59 (controls 1 of 9).
For S31K+T58I+D62Q, the assay gave nd, nd, nd (controls 0 of 9).
For S35L+K65R, the assay gave nd, nd, nd (controls 0 of 9).
For L29T+F59S+A102G, the assay gave nd, nd, nd (controls 0 of 9).
For Y60A+V64L+F105E, the assay gave nd, nd, nd (controls 0 of 9).
For N30H+I34E+R100E, the assay gave nd, nd, nd (controls 0 of 9).
For Y32D+G61F+K65E, the assay gave nd, nd, nd (controls 2 of 9).
For G26D+S53P+G55C, the assay gave nd, nd, nd (controls 1 of 9).
For S35Q+V64Q, the assay gave nd, nd, nd (controls 0 of 9).
For G26D+N30Q+S35G, the assay gave nd, nd, nd (controls 0 of 9).
For S53C+D62Y, the assay gave nd, nd, nd (controls 0 of 9).
For G26K+G61V, the assay gave 4.28, 3.32, 4.39 (controls 0 of 9).
For F27D+L29K+Y32R, the assay gave nd, nd, nd (controls 0 of 9).
For I51N+F59I+V64D, the assay gave nd, nd, 4.06 (controls 1 of 9).
For V50F+V64G, the assay gave nd, nd, nd (controls 0 of 9).
For R56V+Y60E+V64E, the assay gave nd, nd, nd (controls 0 of 9).
For G99M+S107L, the assay gave 2.02, 2.29, 2.52 (controls 0 of 9).
For F27L+Y32G+S63L, the assay gave 5.70, 3.50, 3.84 (controls 3 of 9).
For I34Y+S53D+V64L, the assay gave nd, nd, nd (controls 1 of 9).
For S35Y+R57H+A101C, the assay gave nd, nd, nd (controls 0 of 9).
For S31M+F59P+Y60S, the assay gave nd, nd, nd (controls 0 of 9).
For S31K+S35L+S53W, the assay gave 6.31, 4.23, 6.19 (controls 6 of 9).
For R56T+V64H+D106N, the assay gave nd, nd, nd (controls 0 of 9).
For T28F+V50T+Y52R, the assay gave nd, nd, nd (controls 1 of 9).
For Y32E+R56C+A102T, the assay gave 3.89, 3.55, 2.75 (controls 2 of 9).
For Y32L+S35T+F105W, the assay gave nd, nd, nd (controls 1 of 9).
For I34E+S53A+A102P, the assay gave 4.31, 3.45, 4.45 (controls 0 of 9).
For L29G+A101R, the assay gave 4.40, 5.50, 3.23 (controls 5 of 9).
For T28W+G33S+T58Q, the assay gave nd, nd, nd (controls 0 of 9).
For T28Y+I34W+A101G, the assay gave nd, nd, nd (controls 1 of 9).
For Y32H+G99K+R100W, the assay gave nd, nd, nd (controls 1 of 9).
For R56Y+G99S+G103N, the assay gave 1.20, 1.24, 1.20 (controls 1 of 9).
For G26P+T28G, the assay gave 2.16, nd, nd (controls 0 of 9).
For L29G+Y52E+A101R, the assay gave nd, nd, nd (controls 0 of 9).
For F27H+R100D+D106R, the assay gave nd, nd, nd (controls 2 of 9).
For I34F+S35P+R100A, the assay gave 2.97, nd, 2.24 (controls 0 of 9).
For T28A+I34D+G55Q, the assay gave nd, 5.27, nd (controls 4 of 9).
For G26W+S53W, the assay gave nd, nd, nd (controls 3 of 9).
For L29K+I34D, the assay gave nd, nd, 4.31 (controls 5 of 9).
For G61H+R100W+S107H, the assay gave 4.00, nd, nd (controls 0 of 9).
For N30T+T58H+A101Y, the assay gave nd, nd, nd (controls 0 of 9).
For D54V+F59N+K65N, the assay gave nd, 2.65, nd (controls 1 of 9).
For I51V+D62C+D106S, the assay gave nd, nd, nd (controls 3 of 9).
For R100N+G103E+S107C, the assay gave 4.32, nd, nd (controls 2 of 9).
For I51D+T58C+A101D, the assay gave nd, nd, nd (controls 0 of 9).

For reference, 4 entries of the list once more:

changes,"log10 Kd, replicates",empty controls
G26W+I34G+S53T,"nd, nd, 5.59",1/9
T58D+V64R+T104F,"nd, 4.35, 4.83",1/9
T28Y+I34W+A101G,"nd, nd, nd",1/9
R56T+V64H+D106N,"nd, nd, nd",0/9